From patent US20260382586A1, “DUAL INHIBITORS OF SIGMA-1 RECEPTOR AND SOLUBLE EPOXIDE HYDROLASE AND THEIR USE IN THE TREATMENT OF PAIN” (published 2026)

By UniProt entry, the sequences of proteins in these tests, tags left out. Where a name states a change or a piece, a line headed by the entry shows the natural chain unless it says otherwise.
UniProt P34913, whole entry: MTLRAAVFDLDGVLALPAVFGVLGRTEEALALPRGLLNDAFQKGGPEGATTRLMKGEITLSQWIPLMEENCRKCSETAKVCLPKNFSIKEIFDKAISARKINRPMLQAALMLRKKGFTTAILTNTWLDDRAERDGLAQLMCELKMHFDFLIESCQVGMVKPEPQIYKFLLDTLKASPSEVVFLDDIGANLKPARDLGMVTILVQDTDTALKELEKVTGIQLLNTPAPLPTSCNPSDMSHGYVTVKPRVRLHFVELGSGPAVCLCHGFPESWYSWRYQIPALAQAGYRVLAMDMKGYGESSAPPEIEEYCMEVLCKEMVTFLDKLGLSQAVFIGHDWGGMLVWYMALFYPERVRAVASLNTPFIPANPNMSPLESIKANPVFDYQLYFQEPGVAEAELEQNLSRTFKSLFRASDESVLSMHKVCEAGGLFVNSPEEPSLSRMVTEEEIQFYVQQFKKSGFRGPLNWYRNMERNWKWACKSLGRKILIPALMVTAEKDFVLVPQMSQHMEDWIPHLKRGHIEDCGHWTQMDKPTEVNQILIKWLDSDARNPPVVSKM
UniProt Q99720, whole entry: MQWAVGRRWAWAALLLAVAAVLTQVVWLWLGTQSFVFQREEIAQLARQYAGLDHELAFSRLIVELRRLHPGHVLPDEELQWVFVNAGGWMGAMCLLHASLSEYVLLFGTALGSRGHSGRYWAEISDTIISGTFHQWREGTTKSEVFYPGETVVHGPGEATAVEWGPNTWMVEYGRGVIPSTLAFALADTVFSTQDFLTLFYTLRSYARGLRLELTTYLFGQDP

What was measured:
recombinant human sEH = recombinant human sEH (Homo sapiens, UniProt P34913); assay: Inhibition of sEH (fluorescent assay, CMNPC substrate); settings: for IC50: read-out: Inhibition sEH (IC50), human sEH, pH 7.4, 30 °C, [S]=5 μM; for sEH activity in words: summary of Table 1
human S1R = human S1R (Homo sapiens, UniProt Q99720); assay: Binding to S1R ([3H]-(+)-pentazocine, transfected HEK-293 membranes); settings: for Ki: read-out: Binding S1R (Ki), human S1R, [3H]-(+)-pentazocine 5 nM, 37 °C, 120 min, pH 8

`O=C(NCc1ccc(Br)cc1C(F)(F)F)C1CCN(Cc2ccccc2)CC1` showed an IC50 (recombinant human sEH) of less than 10 nM and a Ki (human S1R) of 50 to 150 nM.
For `O=C(NCc1ccc(Br)cc1C(F)(F)F)C1CCN(Cc2ccc(F)cc2)CC1`, the IC50 (recombinant human sEH) was less than 10 nM and the Ki (human S1R) was less than 50 nM.
For `OC(CCCN1CCN(c2ncc(F)cn2)CC1)c1ccc(F)cc1` (stereo not shown), the IC50 (recombinant human sEH) was greater than 1000 nM and the “sEH activity in words” value (recombinant human sEH) was “inactive in sEH”.
For `O=C(NCc1cccc(F)c1C(F)(F)F)C1CCN(Cc2ccccc2)CC1`, the IC50 (recombinant human sEH) was 10 to 50 nM and the Ki (human S1R) was less than 50 nM.
Molecule `N#Cc1ccc(CNC(=O)C2CCN(Cc3ccc(I)cc3)CC2)c(C(F)(F)F)c1` has an IC50 (recombinant human sEH) of less than 10 nM and a Ki (human S1R) of 50 to 150 nM.
Molecule `O=C(NCc1ccc(Cl)cc1Br)C1CCN(Cc2ccccc2)CC1` has an IC50 (recombinant human sEH) of 10 to 50 nM and a Ki (human S1R) of less than 50 nM.
With `O=C(NCc1ccc(Cl)cc1Cl)C1CCN(Cc2ccc(F)c(F)c2)CC1` the IC50 (recombinant human sEH) was 10 to 50 nM and the Ki (human S1R) was less than 50 nM.
`Cc1ccc(CN2CCC(C(=O)NCc3ccc(C#N)cc3C(F)(F)F)CC2)cc1` gave an IC50 (recombinant human sEH) of 10 to 50 nM and a Ki (human S1R) of less than 50 nM.
`O=C(NCc1cc(F)c(Cl)cc1Cl)C1CCN(Cc2ccccc2)CC1` gave an IC50 (recombinant human sEH) of 10 to 50 nM and a Ki (human S1R) of less than 50 nM.
`COc1cccc(CNC(=O)C2CCN(Cc3ccccc3)CC2)c1C(F)(F)F` gave an IC50 (recombinant human sEH) of 10 to 50 nM and a Ki (human S1R) of 150 to 400 nM.
`O=C(NCc1ccc(Br)cc1C(F)(F)F)C1CCN(Cc2ccc(I)cc2)CC1` gave an IC50 (recombinant human sEH) of less than 10 nM and a Ki (human S1R) of less than 50 nM.
`O=C(NCc1ccc(Cl)cc1C(F)(F)F)C1CCN(Cc2ccsc2)CC1` was tested, and the IC50 (recombinant human sEH) was 10 to 50 nM and the Ki (human S1R) was less than 50 nM.
`N#Cc1ccc(CNC(=O)C2CCN(Cc3ccncc3)CC2)c(C(F)(F)F)c1` gave an IC50 (recombinant human sEH) of less than 10 nM and a Ki (human S1R) of 150 to 400 nM.
In the case of `N#Cc1ccc(CNC(=O)C2CCN(Cc3ccc(Cl)cc3Cl)CC2)c(C(F)(F)F)c1`, the IC50 (recombinant human sEH) is reported as less than 10 nM and the Ki (human S1R) is reported as less than 50 nM.
For `COc1ccc2c(c1)[C@]13CCCC[C@@H]1[C@H](C2)N(C)CC3`, the IC50 (recombinant human sEH) was greater than 1000 nM and the “sEH activity in words” value (recombinant human sEH) was “inactive in sEH”.
`CC[C@H](C)C(=O)N1CCC(NC(=O)Nc2ccc(OC(F)(F)F)c(F)c2)CC1` was tested, and the Ki (human S1R) was greater than 1000 nM and the “S1R binding in words” value (human S1R; summary of Table 1) was “no significant binding to S1R”.
`O=C(NCc1ccc(Br)cc1OC(F)(F)F)C1CCN(Cc2ccc(F)cc2)CC1` showed an IC50 (recombinant human sEH) of less than 10 nM and a Ki (human S1R) of less than 50 nM.
`N#Cc1ccc(CNC(=O)C2CCN(Cc3ccc(Cl)cc3)CC2)c(C(F)(F)F)c1` was tested, and the IC50 (recombinant human sEH) was 10 to 50 nM and the Ki (human S1R) was less than 50 nM.
`O=C(NCc1ccc(Cl)cc1OC(F)(F)F)C1CCN(Cc2ccccc2)CC1` gave an IC50 (recombinant human sEH) of less than 10 nM and a Ki (human S1R) of less than 50 nM.
`COc1ccc(CNC(=O)C2CCN(Cc3ccccc3)CC2)c(OC(F)(F)F)c1` gave an IC50 (recombinant human sEH) of less than 10 nM and a Ki (human S1R) of 150 to 400 nM.
`O=C(NCc1ccccc1OC(F)(F)F)C1CCN(c2ncccn2)CC1` gave an IC50 (recombinant human sEH) of less than 10 nM and a Ki (human S1R) greater than 1000 nM.
Work on `O=C(NCc1ccc(Cl)cc1Cl)C1CCN(Cc2ccsc2)CC1` yielded an IC50 (recombinant human sEH) of 10 to 50 nM and a Ki (human S1R) of less than 50 nM.
For `O=C(NCc1cccc(Br)c1Cl)C1CCN(Cc2ccccc2)CC1`, the IC50 (recombinant human sEH) was 50 to 100 nM and the Ki (human S1R) was less than 50 nM.
With `COc1ccc(CN2CCC(C(=O)NCc3ccc(Cl)cc3C(F)(F)F)CC2)cc1` the IC50 (recombinant human sEH) was less than 10 nM and the Ki (human S1R) was less than 50 nM.
Molecule `O=C(NCc1cccc(Cl)c1C(F)(F)F)C1CCN(Cc2ccccc2)CC1` has an IC50 (recombinant human sEH) of less than 10 nM and a Ki (human S1R) of less than 50 nM.
With `COc1ccc(CN2CCC(C(=O)NCc3ccc(C#N)cc3Cl)CC2)cc1` the IC50 (recombinant human sEH) was 10 to 50 nM and the Ki (human S1R) was 50 to 150 nM.
With `O=C(NCc1ccc(F)cc1C(F)(F)F)C1CCN(Cc2ccc(F)cc2)CC1` the IC50 (recombinant human sEH) was 10 to 50 nM and the Ki (human S1R) was less than 50 nM.
Work on `O=C(NCc1ccc(Cl)cc1OC(F)(F)F)C1CCN(CCc2ccccc2)CC1` yielded an IC50 (recombinant human sEH) of less than 10 nM and a Ki (human S1R) of less than 50 nM.
In the case of `COc1ccc(CNC(=O)C2CCN(Cc3ccc(I)cc3)CC2)c(OC(F)(F)F)c1`, the IC50 (recombinant human sEH) is reported as less than 10 nM and the Ki (human S1R) is reported as less than 50 nM.
Molecule `COc1ccc(CNC(=O)C2CCN(Cc3ccsc3)CC2)c(OC(F)(F)F)c1` has an IC50 (recombinant human sEH) of less than 10 nM and a Ki (human S1R) of 50 to 150 nM.
`CS(=O)(=O)c1ccc(CNC(=O)C2CCN(Cc3ccccc3)CC2)c(Cl)c1` was tested, and the IC50 (recombinant human sEH) was less than 10 nM and the Ki (human S1R) was 150 to 400 nM.
`O=C(NCc1cccc(F)c1Cl)C1CCN(Cc2ccccc2)CC1` gave an IC50 (recombinant human sEH) of 50 to 100 nM and a Ki (human S1R) of less than 50 nM.
`N#Cc1ccc(CNC(=O)C2CCN(Cc3cccs3)CC2)c(C(F)(F)F)c1` showed an IC50 (recombinant human sEH) of less than 10 nM and a Ki (human S1R) of 50 to 150 nM.
Molecule `O=C(NCc1ccc(Cl)cc1Cl)C1CCN(Cc2ccccc2F)CC1` has an IC50 (recombinant human sEH) of 10 to 50 nM and a Ki (human S1R) of less than 50 nM.
Work on `O=C(NCc1ccc(Cl)cc1Cl)C1CCN(CCc2ccccc2)CC1` yielded an IC50 (recombinant human sEH) of 10 to 50 nM and a Ki (human S1R) of less than 50 nM.
`N#Cc1ccc(CNC(=O)C2CCN(CCc3ccccc3)CC2)c(C(F)(F)F)c1` showed an IC50 (recombinant human sEH) of less than 10 nM and a Ki (human S1R) of 50 to 150 nM.
In the case of `O=C(NCc1ccc(Cl)cc1C(F)(F)F)C1CCN(CCc2ccccc2)CC1`, the IC50 (recombinant human sEH) is reported as 10 to 50 nM and the Ki (human S1R) is reported as less than 50 nM.
`COc1ccc(CNC(=O)C2CCN(Cc3ccccc3)CC2)c(C(F)(F)F)c1` showed an IC50 (recombinant human sEH) of less than 10 nM and a Ki (human S1R) of 50 to 150 nM.
In the case of `COc1ccc(CN2CCC(C(=O)NCc3ccc(C#N)cc3C(F)(F)F)CC2)cc1`, the IC50 (recombinant human sEH) is reported as less than 10 nM and the Ki (human S1R) is reported as 50 to 150 nM.
Molecule `O=C(NCc1ccc(Cl)cc1C(F)(F)F)C1CCN(Cc2ccc(F)cc2)CC1` has an IC50 (recombinant human sEH) of 10 to 50 nM and a Ki (human S1R) of less than 50 nM.
For `COc1ccc(CN2CCC(C(=O)NCc3ccc(C#N)cc3OC(F)(F)F)CC2)cc1`, the IC50 (recombinant human sEH) was less than 10 nM and the Ki (human S1R) was less than 50 nM.
